Test system: Human mesothelial cells (ATCC, CRL-9444)
Assay: In vitro cell viability assay (MTT), mesothelial cells
Conditions: range of concentrations of uncross-linked polymers; 3 days incubation

hyaluronic acid-adipic dihydrazide-dexamethasone-succinate [HA-DEX]
effect of polymers on mesothelial cell viability (MTT): larger reduction in the viability
